# Data as given in ChEMBL document CHEMBL1123058, “Synthesis of some quaternary ammonium alkylating agents and their effects on soman-inhibited acetylcholinesterase” (1985).
# Legend:
# Acetylcholinesterase [1] = biological target: T1, Acetylcholinesterase (Rattus norvegicus, UniProt P37136); test: Effect on Acetylcholinesterase activity in rat brain homogenates; conditions: read-out: I50
# Acetylcholinesterase [2] = biological target: T1, Acetylcholinesterase; test: Effect on Acetylcholinesterase activity in rat erythrocytes; conditions: read-out: I50
# Rattus norvegicus = species: Rattus norvegicus; test: Compound (1 mM) was evaluated in vitro for the effect on rate of aging(rate constant) of Soman-inhibited rat erythrocyte AChE and first order rate constant was determined; conditions: 1000 µM
Compound,IC50 (Acetylcholinesterase [1]) [µM],IC50 (Acetylcholinesterase [2]) [µM],Rate constant (Rattus norvegicus)
BrCCCCCC[n+]1ccccc1,90,60,–
CC[N+](C)(CC)CCc1ccncc1.[I-],–,–,0.0306
C[n+]1ccccc1CCC(O)CCl.[I-] (stereo not drawn),–,–,0.05
CC[N+](C)(CC)CC(=O)CCN1C(=O)CCC1=O,–,100,–
CCN(CC)CCc1cccc[n+]1C.[I-],–,–,0.0562
CC[N+](C)(CC)CC(=O)CCN1C(=O)CCC1=O.[I-],–,–,0.0661
CS(=O)(=O)[O-].C[n+]1ccccc1CCl,–,–,0.0585
C[n+]1ccc(CCN2C(=O)CCC2=O)cc1.[I-],–,–,0.0638
CC[N+](C)(CC)CCc1ccccn1.[I-],–,–,0.0472
C[N+](C)(C)CCCCl.[Br-],–,–,0.0359
BrCCCCCC[n+]1ccccc1.[Br-],–,–,0.0672
CC1C=CN(C)c2c1c1c(n2C)CCC1OCCCl.O=C(O)/C=C/C(=O)O (stereo not drawn),–,–,0.109
